activity, negative = inhibition data for 25 molecules are collected here from PubChem BioAssay AID2546 (National Center for Advancing Translational Sciences (NCATS), 2010).

Each structure is given as a SMILES string. Only a part is listed here, and it is no random draw. Some results for these compounds are left out of this collection, so the calls shown say nothing about other tests. Records with an inconclusive call do not appear. Active and inactive are the calls of the source. Calls follow the shape of the dose curve; as a rule, active = well fitted inhibition curve with a large enough effect; inconclusive = small, poorly fitted or top-dose-only effect, or effect the other way; inactive = flat fitted curve, though single readings scatter.
% is scaled to controls: 0 for no effect and ±100 for the full control effect.

The nature of this assay: VP16 counterscreen qHTS for inhibitors of ROR gamma transcriptional activity.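 Also: Gal4-VP16 expression switched on by copper sulfate through the metallothionein promoter; nearly all actives have a fitted effect of over 50% in size.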 The note with it: Drosophila S2 Gal4-VP16 UAS-luciferase, luminescence, 20 h; at 53.6 µM (top of the series). For orientation: Counterscreens check selectivity or assay interference.
For the molecule `Cc1ccccc1C(=O)NCC1(N2CCCCC2)CCCCC1`, the activity, negative = inhibition is inactive: -14.6%. Take `CN(C)C1CCCC1OC(=O)C(O)(c1ccccc1)c1ccccc1` (stereo not given): the activity, negative = inhibition was inactive: -2.27%. For `CN(C)c1ccc(C(=O)NCC2(N(C)C)CCCCC2)cc1`, the activity, negative = inhibition is inactive: 2.69%. With `CN1CCCC(OC(=O)C(O)(c2ccccc2)c2ccccc2)C1` (stereo not given), the activity, negative = inhibition is inactive: -4.61%. The value for `C=CCN1CCN(CCOC(=O)C(O)(c2ccccc2)c2ccccc2)CC1` was inactive: -3.68%; that for `O=C(NCC1(N2CCCCC2)CCCCC1)c1cc(F)c(F)cc1Cl` was inactive: 1.61%; that for `COc1ccc(C(=O)NCC2(N(C)C)CCCCC2)cc1` was inactive: 4.56%. On to `Cc1cc(C(=O)NCC2(N3CCCCC3)CCCCC2)ccc1[N+](=O)[O-]`, for which the activity, negative = inhibition was inactive: 1.54%. The value for `CCN1CCCC(OC(=O)C2(O)c3ccccc3C=Cc3ccccc32)C1` (stereo not given) was inactive: -19%. As to `O=C(NCC1(N2CCCCC2)CCCCC1)c1cccc(Br)c1`, the activity, negative = inhibition was inactive: 2.76%. `O=C(NCC1(N2CCCCC2)CCCCC1)c1cc([N+](=O)[O-])ccc1Cl`: the activity, negative = inhibition is inactive: -1.94%. Next, `CN1[C@@H]2CC[C@H]1CC(OC(=O)C(O)(c1ccccc1)c1ccccc1)C2` (stereo not given in full): inactive: 3.22%. Next, `CCN(CC)CC(C)C(C)OC(=O)C(O)(c1ccccc1)c1ccccc1` (stereo not given): inactive: -3.13%. Next, `COc1cc(SC)ccc1C(=O)NCC1(N(C)C)CCCCC1`: inactive: -1.4%; `CC(C)N1C(=O)CC2(CCN(CCOC(=O)C(O)(c3ccccc3)c3ccccc3)CC2)C1=O`: inactive: 0%. Take `Cc1ccc(C(=O)NCC2(N3CCCCC3)CCCCC2)cc1`: the activity, negative = inhibition is inactive: 1.16%. Next, `O=C(OC1CN2CCC1CC2)C(CO)(c1ccccc1)c1ccccc1` (stereo not given): inactive: 4.79%.

With `COc1ccc(Br)c(C(=O)NCC2(N3CCCCC3)CCCCC2)c1`, the activity, negative = inhibition was inactive: -6.59%.

`CC(C)Oc1ccc(C(=O)NCC2(N(C)C)CCCCC2)cc1`: the activity, negative = inhibition was inactive: 12.7%. Consider `CN(C)c1cccc(C(=O)NCC2(N(C)C)CCCCC2)c1`, for which the activity, negative = inhibition was inactive: 4.53%.

In the case of `CN(C)C1(CNC(=O)c2ccc(Br)cc2)CCCCC1`, the activity, negative = inhibition was inactive: 11.6%.

In the case of `COc1cc(C(=O)NCC2(N(C)C)CCCCC2)c([N+](=O)[O-])cc1OC`, the activity, negative = inhibition was inactive: -2.27%.

In the case of `COc1cccc(C(=O)NCC2(N3CCCCC3)CCCCC2)c1`, the activity, negative = inhibition is inactive: 10.6%. The value for `COc1ccc(Cl)cc1C(=O)NCC1(N(C)C)CCCCC1` was inactive: -1.8%; that for `O=C(NCC1(N2CCCCC2)CCCCC1)c1cccc(Cl)c1` was inactive: 3.87%.
